Reference: patent US8497303B2, “Method to enhance aqueous solubility of poorly soluble actives” (Dow Global Technologies LLC, priority 2008, dated 2013)

Details: best PEG 400:water blend, HPLC

- Maximum loading achieved for any of the PEG 400:water binary blends: 24.3 weight percent
Structure (SMILES): CC(C)Cc1ccc(C(C)C(=O)O)cc1 (stereo not shown) [Ibuprofen, ibuprofen]
